# Yeast mating assay B: variants of the scFv Ab-14

Target: peptide PDVDLGDISGINAS, taken from heptad repeat 2 (HR2) of SARS-CoV-2 spike.

Parent scFv Ab-14: VH joined to VL by three GGGGS repeats. Changes lie in the light chain CDRs alone.
VH: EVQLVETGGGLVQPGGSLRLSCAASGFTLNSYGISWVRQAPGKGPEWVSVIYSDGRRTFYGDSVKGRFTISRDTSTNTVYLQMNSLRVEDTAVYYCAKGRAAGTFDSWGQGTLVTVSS
VL: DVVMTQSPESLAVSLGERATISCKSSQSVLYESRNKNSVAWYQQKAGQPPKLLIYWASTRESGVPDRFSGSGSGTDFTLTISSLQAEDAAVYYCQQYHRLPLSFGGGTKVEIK

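Phage display of a naive human antibody library on the peptide gave the parent. Designed CDR sequences, proposed from the first random library and measured here. Group labels follow the data file (Ctrl: baseline library sampled from a position-specific scoring matrix, with some repeated check sequences; En: ensemble of fine-tuned language models; GP: Gaussian process model; GPLM: also part of the Gaussian process libraries; HC: hill climbing; Gen: genetic algorithm; Gibbs: Gibbs sampling; a sequence that several methods proposed may carry one label only). AlphaSeq pools MATa yeast showing the antibodies with MATalpha yeast showing the peptide. Binding brings cells together so that they mate, and sequencing counts the barcode pairs among the diploids. A regression on co-assayed BCL2-family reference pairs converts the normalised counts of each replicate to an apparent Kd. There are six technical replicates.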

Each variant is given by its three light chain CDRs, as the data file delimits them; those of the parent are KSSQSVLYESRNKNSVA, WASTRES, QQYHRLPLS. The read-out is the apparent dissociation constant on a log10 scale (nM): the lower, the stronger. The mean shown is taken over the replicates in which the pair was detected. An entry "not detected" has no value in the source: the pair was not observed among the diploids in any replicate. This suggests poor binding but is not conclusive. The range of this assay differs from that of the first round, and the authors advise against merging the two. As a blank, each scFv also met three strains without target: over all light chain designs, 4% of these pairings were detected, typically at 2.64 and seldom below 1.59. For each scFv, signals with the empty controls are counted beside the result. Of ten entries with the parent sequence, four were seen in most replicates (averages 0.34 to 2.37), three in one and three in none, so single entries are noisy. The authors averaged sequences with at least three values out of six and counted those with two or fewer as poor binders.

CDR-L1,CDR-L2,CDR-L3,group,"mean, log10 nM",seen in,control signals
KLTMMYQHTSRNKNNIA,ERSTRED,QQYHHLPLS,En_HC,0.70,6/6,1/18
KSGAGVLYESRNKNSVA,GASTRES,QQYHRLPLS,GPLM_HC,0.27,6/6,0/18
KVSQSGLYESRNKNSVA,HASTRES,QQYHRLPLS,GP_Gen,0.74,6/6,0/18
KLSQSHLYESRNKNSVA,NASTREM,QQYHRLPLS,GP_Gen,-0.04,6/6,1/18
KSSPSQYYEDREFNSVA,NASQRES,QQYHRLPLS,GP_Gibbs,0.55,6/6,1/18
KSSQSELYEYRNKNSVA,WASTRES,QQYHRLPLS,Ctrl,3.33,1/6,0/18
KVLQSVLYESRNKNSVA,HASTRED,QQYGRLPLS,GP_HC,0.35,6/6,1/18
KLSQSMWYESRNKNSVA,NASTRLS,QQYHRLPLS,GP_Gen,-0.43,6/6,0/18
ALQQKGATLHEARQNIA,HSDTRAA,QQYSTLPLA,En_Gibbs,0.05,6/6,0/18
MISQLYNMGQFAINSVA,QASIRND,QQYDRLPLI,En_Gen,1.57,6/6,0/18
KIGHGVTGTSRKGNSVA,QAETRLD,QQYHRLPLM,En_HC,0.86,6/6,2/18
SLTVIDNYGSQLENNIA,QGVCKAE,QQYIRLPLI,En_Gibbs,1.60,5/6,0/18
IVSQLMLWGYHAKNSIA,EAKLRLN,QQYDRLPLI,En_Gen,not detected,0/6,1/18
KFSQMVNSMSVSHSAVA,EMSTRES,QQYNRLPLA,En_Gen,0.52,6/6,0/18
KISQSHLYESRNKNSVA,NASTRES,QQYHRLPLS,GP_Gen,0.00,6/6,1/18
MISQLHNMGTFAINSVA,QAELRND,QQYDRLPLT,En_Gen,1.17,6/6,0/18
KSSQSHLYESRNHNSVA,DASTRES,QQYHRLPLP,Ctrl,0.63,6/6,0/18
KLQQSWLYESRNKNSVA,NASTREQ,QQYHRLPLS,GP_Gen,0.12,6/6,1/18
ASSISYLYESPNKNSVA,EASTRES,QQYHRLPLS,GP_HC,1.01,6/6,1/18
KIGMTLNQLLHKKNNVA,DLVTREQ,QQYHRLPLS,En_Gen,0.61,6/6,0/18
HMSMLTLGGLRTRNSVA,QMTTREN,QQYDRLPLA,En_Gen,not detected,0/6,0/18
MVTQMAMTGMKNKRSVA,NAEMRAD,QQYHRLPFI,En_Gen,1.11,5/6,0/18
MMSQVTGMGQRHRNNVA,QTSEREP,QQYDRLPLD,En_Gen,0.36,6/6,3/18
KCSQSVDYLDRNMNNVA,NASTRES,QDYHRLPLS,GP_Gibbs,-0.60,6/6,0/18
NISMSVGMTSFNKNSVA,ENSTREN,QQYDRLPLS,En_HC,2.92,5/6,0/18
KSSQSVLYESRNKNSVA,SASTRED,QQYHRLPLS,Ctrl,0.30,6/6,1/18
HLLYAQNTGSLYDNNVA,EGETVLD,QQYFRLPIT,En_Gibbs,1.37,6/6,1/18
KISMLYNYESTAKNSIA,EMTTRES,QHYHRLPLS,En_HC,0.66,6/6,0/18
KSSQSQLMESGNKNNVA,WASERES,QRYHRLPLS,Ctrl,not detected,0/6,0/18
KIEESTKGDRYFQYSIA,QGDIREK,QQYGQLPLT,En_Gibbs,1.96,4/6,1/18
KVSQSVLYESGTKNSVA,NASHRES,QQYHRLPLS,GP_HC,0.84,6/6,2/18
QLRDEQWAEGMNIQSIA,ENEVSKD,QQYNRLPLS,En_Gibbs,2.27,3/6,1/18
QLMQVGGYESNAHNSIA,DLRTRES,QQYHRLPLS,En_HC,1.17,6/6,0/18
KVSEFMRGLMQRTDSIA,DNVTRSN,QQYDRLPLS,En_Gen,2.03,6/6,0/18
KLSQSWLYESRNFNSVA,NASQRES,QQYHRLPLS,GP_Gen,0.32,6/6,1/18
KLCQSVLYESRNKNSVA,HASTRED,QQYHRLPLS,GP_HC,0.00,6/6,0/18
KLRTVTGTEKVIGNNVA,EMETRER,QQYNRLPLS,En_Gen,1.61,6/6,0/18
MLSDLVKMGVRNTNSVA,DNSTRGP,QQYDRLPLS,En_HC,1.32,6/6,2/18
KSGQGDLYESRNWNSVA,GASTRES,QQYHRLPLS,GP_HC,-0.13,6/6,1/18
KSSQSVLYESANTNSVA,WASTRES,QQYHRLPLS,Ctrl,1.62,6/6,1/18
MMSQVTGLGTRHRNNVA,QTSTRED,QQYDRLPLI,En_Gen,0.65,6/6,4/18
QINVNRLMNYTMNNAIA,GKTLRVD,QQYARLPLS,En_Gibbs,1.58,5/6,0/18
KSSPSVIYESRNKNSVA,WASTRES,QQTHRLPLS,Ctrl,not detected,0/6,0/18
KLSQSVDYESRNKNNVA,GASTRES,QQYHRLPLS,GP_Gen,-0.15,6/6,0/18
SLMHLSFVHPREWNNVA,DASVKAS,QQYFRLPLV,En_Gibbs,0.54,6/6,1/18
KFSQSVLYESTTENSVA,NASTRES,QQYHRLPLS,GP_HC,0.30,6/6,1/18
KLSQSVLYESRNKNSVA,DASTRES,QAYHRLPLS,GP_Gen,-0.06,6/6,1/18
RITYAAEQLQRIDSSVA,AGSARCR,QQYYRLPLS,En_Gibbs,0.87,6/6,0/18
KLTMITGLEKVQGNNVA,EMETREK,QQYNRLPLS,En_Gen,-0.04,6/6,0/18
KSSQDVLYESRTKNSVA,WASTRES,QQYHRLPLS,Ctrl,1.27,2/6,0/18
KLEQSQLYESRNKNSVA,NASQRES,QQYHRLPLS,GP_Gen,-0.19,6/6,2/18
KISQAVNYLSRVMNSVA,DNSTRES,QQYFRLPLS,En_HC,-0.16,6/6,0/18
KSSQVWLYESRNKNSVA,GASTRES,QQYHRLPLS,GP_HC,-0.15,6/6,0/18
KLSGIMRMESKVSNSIA,EVNERPE,QQYDRLPLS,En_Gen,1.07,6/6,0/18
KVQNGLERGNQAYSAVA,DVTEKGA,QQYLQLPLG,En_Gibbs,0.39,6/6,0/18
KLSQSMEYESRNKNSVA,HASTREQ,QQYHRLPLM,GP_Gibbs,-0.27,6/6,0/18
KLQQSWMMQWRNKNSVA,HASTRLS,QQYHRLPLS,GP_Gibbs,0.82,6/6,2/18
SLSQSALYESRNKNSVA,NASTREW,QQYHRLPLS,GP_Gibbs,-0.21,6/6,1/18
KSSQSVLYESGNKNSVA,EASTRED,QQYHRLPLS,GP_HC,0.74,6/6,3/18
ILDQSQLYESRNKNSVA,NANTREQ,QQYHRLPLS,GP_Gibbs,-0.58,6/6,0/18
KNSQSDLYESRNKNPVA,QASTRES,QQYHRTPLS,Ctrl,not detected,0/6,0/18
IISQVDGYLSRNKNSIA,DQSTRGS,QQYDRLPLS,En_HC,0.80,6/6,0/18
KLRMSTLYESRNKNSVA,NASTRES,QQYHRLPLS,GP_HC,0.29,6/6,0/18
KLSQSTLYESRNKNSVA,NASTRCS,QQYHRLPLS,GP_Gen,-0.41,6/6,1/18

The first 5 variants above that were never detected:

| CDR-L1 | CDR-L2 | CDR-L3 | group | mean, log10 nM | seen in | control signals |
|---|---|---|---|---|---|---|
| IVSQLMLWGYHAKNSIA | EAKLRLN | QQYDRLPLI | En_Gen | not detected | 0/6 | 1/18 |
| HMSMLTLGGLRTRNSVA | QMTTREN | QQYDRLPLA | En_Gen | not detected | 0/6 | 0/18 |
| KSSQSQLMESGNKNNVA | WASERES | QRYHRLPLS | Ctrl | not detected | 0/6 | 0/18 |
| KSSPSVIYESRNKNSVA | WASTRES | QQTHRLPLS | Ctrl | not detected | 0/6 | 0/18 |
| KNSQSDLYESRNKNPVA | QASTRES | QQYHRTPLS | Ctrl | not detected | 0/6 | 0/18 |

Data: MIT Lincoln Laboratory AlphaSeq set, Li et al. 2023, doi:10.1038/s41467-023-39022-2, as distributed in FLAb.